Results taken from publication PMC4234672, “β-Arrestin-Dependent Deactivation of Mouse Melanopsin” (PLoS ONE, 2014).

Biological target: T1, mouse melanopsin-1D4 (mouse, UniProt Q9QXZ9-1 1-521)
T1 construct: Reconstituted in the cells with 20 µM 9-cis retinal; light exposure leads to phosphorylation of the C-tail in the cells; also called wildtype melanopsin-1D4
T1 sequence (looked up): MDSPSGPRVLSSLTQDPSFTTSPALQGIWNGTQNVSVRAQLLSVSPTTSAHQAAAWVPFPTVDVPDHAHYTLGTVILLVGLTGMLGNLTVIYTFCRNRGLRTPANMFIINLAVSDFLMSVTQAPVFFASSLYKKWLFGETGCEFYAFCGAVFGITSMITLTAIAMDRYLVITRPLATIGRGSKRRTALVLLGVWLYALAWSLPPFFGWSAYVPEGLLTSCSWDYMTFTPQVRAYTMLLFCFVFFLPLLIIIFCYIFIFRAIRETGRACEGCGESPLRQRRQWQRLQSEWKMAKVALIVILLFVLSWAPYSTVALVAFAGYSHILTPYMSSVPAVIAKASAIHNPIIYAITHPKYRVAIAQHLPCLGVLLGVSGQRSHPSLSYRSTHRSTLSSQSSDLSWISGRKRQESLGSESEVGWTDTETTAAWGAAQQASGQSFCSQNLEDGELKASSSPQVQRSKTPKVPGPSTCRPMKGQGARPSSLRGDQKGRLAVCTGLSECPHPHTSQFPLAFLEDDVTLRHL
Assay: cross-linking + co-IP; β-arrestin stable HEK293 lines transfected with melanopsin-1D4 or phosphonull-1D4; 20 µM 9-cis retinal 1 h in the dark; light-exposed (bright white light, 30 min, 20°C) or dark-adapted; DSP cross-linking in the cells; solubilised in PBS with 1% dodecyl maltoside; 1D4 sepharose beads overnight 4°C; eluted with 50 mM DTT; blots for β-arrestin 1 and β-arrestin 2
Settings: partners not purified

fold increase in co-precipitation, light-exposed against dark sample: 6 fold | fold increase in co-precipitation, light-exposed wildtype against light-exposed phosphonull melanopsin: 5 fold
B1: rat β-arrestin 1 (natural protein, UniProt P29066 1-418, looked up)
chain: MGDKGTRVFKKASPNGKLTVYLGKRDFVDHIDLVDPVDGVVLVDPEYLKERRVYVTLTCAFRYGREDLDVLGLTFRKDLFVANVQSFPPAPEDKKPLTRLQERLIKKLGEHAYPFTFEIPPNLPCSVTLQPGPEDTGKACGVDYEVKAFCAENLEEKIHKRNSVRLVIRKVQYAPERPGPQPTAETTRQFLMSDKPLHLEASLDKEIYYHGEPISVNVHVTNNTNKTVKKIKISVRQYADICLFNTAQYKCPVAMEEADDTVAPSSTFCKVYTLTPFLANNREKRGLALDGKLKHEDTNLASSTLLREGANREILGIIVSYKVKVKLVVSRGGLLGDLASSDVAVELPFTLMHPKPKEEPPHREVPESETPVDTNLIELDTNDDDIVFEDFARQRLKGMKDDKDEEDDGTGSPHLNNR
notes: also called β-arr1; arrestin 2
